Test results: patent US20180228703A1, “Improved Hyaluronan and Modified-Hyaluronan in Biomedical Applications” (CHL Industries, LLC, priority 2015, published 2018)

System: non-soluble type I collagen
Assay: Non-soluble type I collagen production by HDF, direct ELISA
Format: cell-based, human
Details: for % CTRL (COL-I): 4 days, vs water; for % CTRL (Cell # Standardized): non-soluble collagen I standardized to cell numbers
Method: Adult human dermal fibroblasts (Cell Applications, San Diego, Calif.) were plated in DMEM without phenyl red supplemented with 5% FBS and 1% penicillin/streptomycin (PS) at a concentration of 8,000 cells/well. Test materials, which were stored at 4° C. until dissolved at 20 mg/ml in ddH2O, were added the next day on attached exponentially-growing cells. Negative and positive controls were, respectively, type I sterile water and L-Ascorbic acid 2-phosphate sesquimagnesium salt (“MAP”) (Sigma-Aldrich).
Cells were then fixed with 2.5% trichloroacetic acid (TCA) at 4° C., dried overnight, and tested for non-soluble type I collagen, using direct ELISA.
Cells proliferation was quantified by staining cytoskeletons with sulforhodamine B according to the colorimetric method of Voigt, “Sulforhodamine B assay and chemosensitivity,” Methods Mol. Med. Vol. 110, pp. 39-48 (2005). Statistical significance was assessed with two-tailed paired Student test. Deviations of >15% as compared to the negative water control with p values below 0.05 were considered statistically significant.
The effect of test materials on non-soluble collagen I production, cell numbers, and non-soluble collagen I standardized to cell numbers expressed as % of the negative control (water) are presented in the following table.

## L-Ascorbic acid 2-phosphate sesquimagnesium salt [MAP, reference compound]
50 μg/mL
  % CTRL (COL-I): 132 % CTRL
  % CTRL (Cell # Standardized): 117 % CTRL
100 μg/mL
  % CTRL (COL-I): 141 % CTRL
  % CTRL (Cell # Standardized): 138 % CTRL
